Test results published in paper PMC6274316, “Significant Improvement of Metabolic Characteristics and Bioactivities of Clopidogrel and Analogs by Selective Deuteration” (Molecules, 2016).

Conditions: rat, 1000 ng/mL

first order rate of hydrolysis: 0.0219 min⁻¹ | slope of fitted line, first order decomposition (Figure 2): -0.0919
SMILES: COC(=O)[C@H](c1ccccc1Cl)N1CCc2sccc2C1 [clopidogrel, Clopidogrel]
